Results: publication PMC5970795
pKd: −log10 of the molar value.

Experiments:
Assay in all cases: fluorescence polarisation
[1] = target: C-terminal bromodomain of BRD2
[2] = target: C-terminal bromodomain of BRD3
[3] = target: C-terminal bromodomain of BRD4
[4] = target: N-terminal bromodomain of BRD3
[5] = target: N-terminal bromodomain of BRDT

Substance	pKd [1]	pKd [2]	pKd [3]	pKd [4]	pKd [5]
histone H4(1-11) peptide H4K5/8dicrotonyl	–	–	–	3.57	–
histone H4(1-11) peptide H4K5acetylK8butyryl	3.47	–	–	–	4.06
histone H4(1-11) peptide H4K5acetylK8glutaryl	3.66	–	–	3.91	3.88
histone H4(1-11) peptide H4K5acetylK8hydroxyisobutyryl	3.65	–	–	–	3.92
histone H4(1-11) peptide H4K5acetylK8succinyl	3.51	–	–	4.06	4.08
histone H4(1-11) peptide H4K5crotonylK8acetyl	–	–	–	3.40	–
histone H4(1-11) peptide H4K8acetyl	3.44	3.55	–	3.96	3.55

Other lines, results leading:

pKd [1]	pKd [2]	pKd [3]	pKd [4]	pKd [5]	Substance
3.74	3.04	3.13	4.03	4.82	histone H4(1-11) peptide H4K5/8diacetyl
3.88	–	3.02	3.44	4.24	histone H4(1-11) peptide H4K5/8dipropionyl
3.84	3.40	3.28	4.36	3.52	histone H4(1-11) peptide H4K5acetyl
3.77	–	–	4.47	4.49	histone H4(1-11) peptide H4K5acetylK8crotonyl
3.73	–	–	4.23	4.12	histone H4(1-11) peptide H4K5acetylK8propionyl
3.78	–	–	3.73	–	histone H4(1-11) peptide H4K5hydroxyisobutyrylK8acetyl
3.69	–	–	–	3.94	histone H4(1-11) peptide H4K5propionylK8acetyl
